Data taken from patent publication US8623821B2, “Zymogen activators” (Genentech, Inc., priority 2011, dated 2014).

Test system: BxPC-3 cells
Experiment: BxPC-3 cell survival assay, HGF proteins alone
Type: cell-based, human
Description: BxPC-3 cells were obtained from ATCC and maintained in cell culture medium (RPMI, 10% FBS (Sigma), 50 U/ml penicillin/50 μg/ml streptomycin, 2 mM glutamine). For the survival assay, cells were plated at 10,000 cells/well in 96 well tissue culture plates (Falcon 353072) in 50 μl assay diluent (RPMI, 0.1% BSA (Sigma) 50 U/ml penicillin/50 μg/ml streptomycin, 2 mM glutamine). Cells were allowed to attach for 1-2 h in a 37° C. CO2 incubator. Human HGF proteins (HGF, scHGF or scHGF plus peptide titrations) were pre-incubated at room temperature in assay diluent. HGF/peptide mixtures were added to cells in microtiter plates in triplicate at 50 μl per well and plates were incubated at 37° C. in a CO2 incubator. […] After 72 h, 25 μl alamar Blue (Serotec, BUF012B) was added to each well and incubate an additional 2 h at 37° C. in a CO2 incubator. Plates were agitated vigorously for 10 min at room temperature, and fluorescence was read at 530-590 nm in a fluorescent plate reader.

B1: scHGF: non-cleavable form of pro-HGF, inactive as a Met ligand (protein)
chain: QRKRRNTIHEFKKSAKTTLIKIDPALKIKTKKVNTADQCANRCTRNKGLPFTCKAFVFDKARKQCLWFPFNSMSSGVKKEFGHEFDLYENKDYIRNCIIGKGRSYKGTVSITKSGIKCQPWSSMIPHEHSFLPSSYRGKDLQENYCRNPRGEEGGPWCFTSNPEVRYEVCDIPQCSEVECMTCNGESYRGLMDHTESGKICQRWDHQTPHRHKFLPERYPDKGFDDNYCRNPDGQPRPWCYTLDPHTRWEYCAIKTCADNTMNDTDVPLETTECIQGQGEGYRGTVNTIWNGIPCQRWDSQYPHEHDMTPENFKCKDLRENYCRNPDGSESPWCFTTDPNIRVGYCSQIPNCDMSHGQDCYRGNGKNYMGNLSQTRSGLTCSMWDKNMEDLHRHIFWEPDASKLNENYCRNPDDDAHGPWCYTGNPLIPWDYCPISRCEGDTTPTIVNLDHPVISCAKTKQLRVVNGIPTRTNIGWMVSLRYRNKHICGGSLIKESWVLTARQCFPSRDLKDYEAWLGIHDVHGRGDEKCKQVLNVSQLVYGPEGSDLVLMKLARPAVLDDFVSTIDLPNYGCTIPEKTSCSVYGWGYTGLINYDGLLRVAHLYIMGNEKCSQHHRGKVTLNESEICAGAEKIGSGPCEGDYGGPLVCEQHKMRMVLGVIVPGRGCAIPNRPGIFVRVAYYAKWIHKIILTYKVPQS
stimulation of cell survival by HGF protein alone (200 ng/ml (FIG. 11A)): no activity | stimulation of cell survival by HGF protein alone (400 ng/ml (FIG. 6A)): no activity
